Earlier results as cited in US20150056166A1, “FLAVONE DERIVATIVES AND THEIR USE” (Twincore GmbH, priority 2012, published 2015).

Details: cited from earlier work

## Magnesium stearate
  level generally considered safe for human consumption: below 2500 mg/kg per day
